Assay results published in patent US11464840B2, “Universal non-classical MHC I vaccines: HLA-E-restricted antigenic peptides as universal vaccines to treat allergy, inflammation, autoimmune and infectious diseases, and cancers” (priority 2019, dated 2022).

Tested on: HLA-E
Experiment: ELISA of renatured HLA-E binding to biotinylated leader peptide (C3N)
Set-up: species or system human
Protocol: FIG. 2. Renaturation and restoration of conformation of HLA-E by leader peptides and β2m. ELISA for the interaction of denatured HLA-E or covalent HLA-E-β2 microglobulin fusion protein with biotinylated HLA-A2 leader peptide. 10 μg of denatured recombinant HLAE-β2 microglobulin fusion protein, or denatured HLA-E incubated with biotinylated A2 leader peptide (SEQ ID NO: 50, […]) with or without 10 μg β2 microglobulin in 50 μl buffer A (0.5 mM-Tris pH at 6.6) at 18° C. for two days. The complexes were then added into anti-HLA E antibody coated plate (2 μg/ml) and incubated for 1 hour. After washing three times with 1% BSA PBS, HRP-Avidin (Biolegend #405103, 1:1000) was used to detect bound biotinylated leader peptide.
A conformation capture of canonical/non-canonical peptide (C3N) method to HLA-E is designed to test predicted HLA-E binding peptides. HLA-E canonical and nominal peptides predicted from the python algorithm of Igepredict program and any 9 to 12-mer made collinearly with an overlapping IgE sequence can be tested by a binding assay. As illustrated herein, human HLA-E and β2m fusion construct can be made and collinearly expressed as a fusion protein as shown in FIG. 2. […]

peptide binding enhancement compared to HLA-E heavy chain alone: 20%
Substance: β2m: recombinant human beta 2 microglobulin added externally
